{
  "source": "patent US7279321B2",
  "about": "“Methods for increasing the resistance of a host cell to aromatic carboxylic acids” (priority 2003, dated 2007)",
  "key": {"[1]": {"test_system": "E. coli strain DH5αE (parental)", "assay": "zone of growth inhibition test on LB agar plates", "type": "cell-based", "settings": "disk with 90 μmol pHBA sodium salt, 24 hr at 37° C.", "description": "(§1) A zone of growth inhibition test was done using 0.1 ml of overnight cultures in LB medium plated onto LB agar plates using 2.5 ml LB soft agar."}, "[2]": {"test_system": "E. coli strain DPD2443 (yhcP::TN<Kan> of DH5αE)", "assay": "zone of growth inhibition test on LB agar plates", "type": "cell-based", "settings": "disk with 90 μmol pHBA sodium salt, 24 hr at 37° C.", "description": "as §1"}, "[3]": {"test_system": "yhcRQP-luxCDABE gene fusion in strain DPD2437 (yhcS−)", "assay": "Bioluminescence response of yhcRQP-luxCDABE gene fusion", "type": "cell-based, E. coli", "settings": "ychS−, thirty minutes", "text": "(§2) Plasmid pDEW655 was constructed by ligating an E. coli chromosomal segment between nucleotides 3385829 and 3386761 according to the E. coli genomic sequence, which contains the promoter region of the putative yhcRQP operon and the entire yhcR gene and the 5′ end of the yhcQ gene, to the luxCDABE genes parental plasmid, pDEW201 (Gonye et al. U.S. Patent Application Publication 20030219736). Thus, this gene fusion will report on expression of the yhcQ gene and accordingly any other genes cotranscribed with it. Plasmid pDEW655 was moved to E. coli strains MG1655 and DPD2433 by transformation, selecting for Ampicillin resistance to generate strains DPD2436 and DPD2437, respectively. The bioluminescent response of these two strains to pHBA was tested. Aliquots (50 μl) of actively growing cultures at 37° C. in LB medium that had been previously diluted and from overnight cultures in LB medium with 150 μg/ml Ampicillin were added to 50 μl of LB medium at pH 7.0 containing pHBA as the sodium salt form. Several concentrations of pHBA were tested. […] The yhcS::TN<Kan> mutation almost completely eliminated the upregulation of expression induced by pHBA treatment at all concentrations tested."}, "[4]": {"test_system": "yhcRQP-luxCDABE gene fusion in strain DPD2436 (yhcS+)", "assay": "Bioluminescence response of yhcRQP-luxCDABE gene fusion", "type": "cell-based, E. coli", "text": "as §2"}, "E. coli DPD2444 (yhcP−)": {"test_system": "E. coli DPD2444 (yhcP−)", "type": "cell-based", "settings": "MIC MG1655 versus MIC DPD2444", "description": "Additional compounds were tested for growth inhibition of E. coli MG1655 (yhcP^+) and DPD2444 (yhcP^−) in Vogel-Bonner medium with glucose as the carbon source and with 0.01% tetrazolium violet added as an indicator of viability. A series of two-fold dilutions of each chemical was made to the wells of a clear 96-well microplate in 50 μl volume. To these wells was added 50 μl of an overnight culture in Vogel Bonner medium with glucose as a carbon source of either MG1655 or DPD2444 that had been previously diluted 500-fold into fresh medium. The plates were incubated at 37° C. without shaking for 16 to 18 hours. The purple color in each well was visually scored. A score of 4+ indicated full purple color equivalent to a no chemical control well. Scores of 3+, 2+, or 1+ indicated decreasing amounts of purple color. A score of − indicated the complete absence of color. The MIC was defined as the lowest tested concentration that gave complete absence of color. The rank of difference between strains was defined as the score of pigment color for E. coli MG1655 in wells containing the concentration of a given chemical at the MIC for DPD24444. When MG1655 had no color, the score was 0. When MG 1655 was scored at 1+, the score was 1, when scored at 2+, the score was 2, etc."}},
  "data": [
    {"smiles": "O=C(O)c1ccc(O)cc1", "note": "[pHBA, para-hydroxybenzoic acid]", "values": [
      {"measurement": "pHBA zone of growth inhibition (relative clarity)", "setting": "[1]", "result": "turbid"},
      {"measurement": "pHBA zone of growth inhibition (relative clarity)", "setting": "[2]", "result": "very slightly turbid"},
      {"measurement": "Ratio treated/control", "setting": "[3]; [pHBA] 1.6", "result": 1.25},
      {"measurement": "Ratio treated/control", "setting": "[3]; [pHBA] 3.1", "result": 1.42},
      {"measurement": "Ratio treated/control", "setting": "[3]; [pHBA] 6.2", "result": 1.75},
      {"measurement": "Ratio treated/control", "setting": "[3]; [pHBA] 12.5", "result": 2.23},
      {"measurement": "Ratio treated/control", "setting": "[3]; [pHBA] 25", "result": 1.95},
      {"measurement": "Ratio treated/control", "setting": "[3]; [pHBA] 50", "result": 0.753},
      {"measurement": "Ratio treated/control", "setting": "[3]; [pHBA] 100", "result": 0.055},
      {"measurement": "Ratio treated/control", "setting": "[4]; [pHBA] 1.6, thirty minutes", "result": 10.6},
      {"measurement": "Ratio treated/control", "setting": "[4]; [pHBA] 3.1, thirty minutes", "result": 16.2},
      {"measurement": "Ratio treated/control", "setting": "[4]; [pHBA] 6.2, thirty minutes", "result": 25.7},
      {"measurement": "Ratio treated/control", "setting": "[4]; [pHBA] 12.5, thirty minutes", "result": 48.8},
      {"measurement": "Ratio treated/control", "setting": "[4]; [pHBA] 25, thirty minutes", "result": 106},
      {"measurement": "Ratio treated/control", "setting": "[4]; [pHBA] 50, thirty minutes", "result": 145},
      {"measurement": "Ratio treated/control", "setting": "[4]; [pHBA] 100, thirty minutes", "result": 0.693},
      {"measurement": "Fold Diff", "setting": "E. coli DPD2444 (yhcP−)", "result": 8}
    ]}
  ]
}
